Data as given in ChEMBL document CHEMBL4828708 (Eur J Med Chem, 2021).

Chains of the proteins cited; added tags and fusions are not shown.
UniProt P0DMS8, whole entry: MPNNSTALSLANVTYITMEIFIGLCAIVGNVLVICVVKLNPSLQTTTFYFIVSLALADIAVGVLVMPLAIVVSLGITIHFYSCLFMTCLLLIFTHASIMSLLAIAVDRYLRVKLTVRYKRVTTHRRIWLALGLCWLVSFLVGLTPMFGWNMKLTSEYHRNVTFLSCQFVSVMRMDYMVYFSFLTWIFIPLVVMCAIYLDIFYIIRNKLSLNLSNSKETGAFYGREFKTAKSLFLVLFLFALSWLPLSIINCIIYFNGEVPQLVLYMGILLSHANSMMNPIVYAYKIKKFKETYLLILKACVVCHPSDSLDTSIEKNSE

Molecular target: Adenosine receptor A3 (Homo sapiens, UniProt P0DMS8)
Assay: Displacement of [3H]NECA from human adenosine A3 receptor expressed in HEK293 cell membrane at 10 uM incubated for 180 mins by microplate beta scintillation counting based radioligand inhibition assay relative to control

Nc1ncnc2c1ncn2[C@@H]1O[C@H](CO)[C@@H](O)[C@H]1O gave an inhibition of 10%.
